Test: Solubility

## Tetrakis{3-[(tricyclo[3.3.1.1^3,7]decan-1-ammonio)methyl]benzyl}ammonium pentachloride [PT162]
  Solubility in water: water-soluble

From patent US11702443B2, “Therapeutic agents and methods” (Pop Test Oncology LLC, priority 2016, dated 2023)
